The text below walks through data of article PMC7730441, “Acetylcholinesterase and butyrylcholinesterase inhibitory activities of khellactone coumarin derivatives isolated from Peucedanum japonicum Thurnberg” (Scientific Reports, 2020).

Amino acid sequences for entries named in this document (tags omitted). Residues count along the entry.
UniProt P81908, whole entry: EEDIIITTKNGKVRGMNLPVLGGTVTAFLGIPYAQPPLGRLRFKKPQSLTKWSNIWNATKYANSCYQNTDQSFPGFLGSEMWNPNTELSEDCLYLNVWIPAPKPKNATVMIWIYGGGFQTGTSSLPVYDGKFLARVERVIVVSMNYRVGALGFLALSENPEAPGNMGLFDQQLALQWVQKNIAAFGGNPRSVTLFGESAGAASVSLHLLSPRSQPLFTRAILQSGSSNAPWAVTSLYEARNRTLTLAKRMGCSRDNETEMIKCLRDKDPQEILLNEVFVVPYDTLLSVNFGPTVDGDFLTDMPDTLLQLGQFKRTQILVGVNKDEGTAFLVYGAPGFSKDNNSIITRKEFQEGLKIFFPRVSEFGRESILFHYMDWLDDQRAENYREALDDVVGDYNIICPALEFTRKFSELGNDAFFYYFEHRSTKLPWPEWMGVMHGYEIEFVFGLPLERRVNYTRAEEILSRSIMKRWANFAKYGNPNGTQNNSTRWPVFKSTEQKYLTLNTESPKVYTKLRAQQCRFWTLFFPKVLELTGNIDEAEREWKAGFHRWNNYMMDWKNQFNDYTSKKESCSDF
UniProt O42275, 24-633: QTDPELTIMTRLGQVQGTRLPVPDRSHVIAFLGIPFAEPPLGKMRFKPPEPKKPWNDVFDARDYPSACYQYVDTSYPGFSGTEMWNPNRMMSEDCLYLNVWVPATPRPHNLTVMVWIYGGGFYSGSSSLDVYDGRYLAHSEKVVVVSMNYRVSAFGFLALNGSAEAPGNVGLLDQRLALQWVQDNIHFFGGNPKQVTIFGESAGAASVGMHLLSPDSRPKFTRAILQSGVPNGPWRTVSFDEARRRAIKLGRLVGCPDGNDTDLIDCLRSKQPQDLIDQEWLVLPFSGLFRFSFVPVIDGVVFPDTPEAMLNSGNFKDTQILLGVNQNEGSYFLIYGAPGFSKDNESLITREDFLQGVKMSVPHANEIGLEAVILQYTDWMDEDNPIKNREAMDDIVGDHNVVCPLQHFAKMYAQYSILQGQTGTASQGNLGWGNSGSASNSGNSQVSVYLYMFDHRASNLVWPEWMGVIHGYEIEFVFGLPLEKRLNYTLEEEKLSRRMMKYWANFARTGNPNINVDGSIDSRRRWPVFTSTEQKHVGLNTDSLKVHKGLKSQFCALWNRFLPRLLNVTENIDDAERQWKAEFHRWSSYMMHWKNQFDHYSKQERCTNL

Assay [1] addresses T1, BChE (from equine serum) (Equus caballus, UniProt P81908).
T1 construct: BChE (from equine serum); purchased Sigma-Aldrich; host or cells: equine serum
The class given is biochemical. The note with it: read-out: IC50 (µM) BChE; 15 min preincubation. As to the method:
(§1) AChE assays were performed as described by Ellman et al.[41] with slight modifications. […] DTNB was used for color development, caused by reaction between it and thiocholine (a product of AChE). For inhibitory assays, compounds were preincubated with AChE for 15 min prior to ATCI and DTNB addition. BChE activity was assayed using the same method, but BTCI was used instead of ATCI.
(§2) Inhibitions of the activities of AChE, BChE, MAO-A, and MAO-B by the 15 compounds were investigated at an inhibitor concentration of 10 µM. IC50 values were also determined. […] The inhibition types and Ki values were determined using Lineweaver–Burk Plots and secondary plots.

Assay [2] has as its target T2, AChE (Type VI-S; from Electrophorus electricus) (Electrophorus electricus, UniProt O42275).
T2 construct: AChE (Type VI-S; from Electrophorus electricus); purchased Sigma-Aldrich Type VI-S (catalogue number not given)
Format: biochemical. The note with it: read-out: IC50 (µM) AChE; 15 min preincubation. As to the method:
as §1, §2

As to Pteryxin [PJ2], the IC50 in assay [1] and in assay [2] was more than 40 µM throughout.

One may read the IC50 as the midpoint of a concentration-inhibition curve.
